# According to patent US20230220037A1, “NOVEL USE” (GlaxoSmithKline Intellectual Property (No.3) Limited, priority 0001, published 2023):
# Tested on: rats
# Assay: Five-day rat dural infusion migraine model, periorbital von Frey testing
# Format: in vivo
# Conditions: supra-dural infusion 5 days; Pregnenolone sulphate 5 mM, CIM0216 215 μM
# Method: The five-day rat Dural infusion migraine model is based on repeated inflammatory dural stimulation to mimic the repeated activation of dural afferents believed to occur in patients with recurrent migraine headache. In this model, rats are tested in the periorbital region for mechanical allodynia (a pain response to stimuli which are not normally painful) using von Frey fibres, which are small calibrated fibres which deliver a calibrated amount of force.
# The surgery, infusion, and testing followed the modification of the method of Oshinsky & Gomoncharconsiri, 2007, supra. Briefly, rats were habituated and trained for 1-2 weeks and then fitted with a stainless-steel cannula (22GA, Plastics One) under isoflurane anaesthesia. […]
# Periorbital thresholds were monitored during the recovery period to ensure the thresholds returned to pre-surgery baselines. […]
# Pre-infusion sensory testing occurred on Day 1 of the testing schedule to provide a point of comparison for subsequent testing. […] Based on the response pattern and the force of the final filament, the periorbital threshold (g) was calculated (Chaplan et al., 1994, Quantitative assessment of tactile allodynia in the rat paw. Journal of neuroscience methods, 53(1), 55-63). The supra-dural infusions were above the dura in the right brain hemisphere; therefore, the right periorbital threshold data only was recorded. […]
substance,measurement,value
pregnenolone sulfate,Overt adverse effects / body weight,do not cause overt adverse effects
